Chains of the proteins cited; added tags and fusions are not shown.
UniProt P34972, whole entry: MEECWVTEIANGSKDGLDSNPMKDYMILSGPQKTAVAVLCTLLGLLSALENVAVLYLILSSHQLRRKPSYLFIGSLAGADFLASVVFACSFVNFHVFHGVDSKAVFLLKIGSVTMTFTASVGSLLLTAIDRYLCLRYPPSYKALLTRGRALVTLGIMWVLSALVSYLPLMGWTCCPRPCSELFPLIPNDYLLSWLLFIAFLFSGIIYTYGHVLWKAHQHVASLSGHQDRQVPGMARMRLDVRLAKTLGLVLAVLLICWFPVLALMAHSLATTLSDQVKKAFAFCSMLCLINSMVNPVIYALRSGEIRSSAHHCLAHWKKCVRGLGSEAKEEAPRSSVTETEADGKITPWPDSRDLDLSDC

According to ChEMBL document CHEMBL4422692, “Plant-Based Modulators of Endocannabinoid Signaling” (J Nat Prod, 2019):

Target: Cannabinoid receptor 2 (Homo sapiens, UniProt P34972)
Test: Displacement of [3H]-CP55940 from recombinant human CB2 receptor expressed in Sf9 cell membranes co-expressing Galphai3beta1gamma2 measured after 90 mins by scintillation counting method

Work on C=C(C)[C@@H]1CCC(C)=C[C@H]1c1c(O)cc(CCCCC)cc1O [CANNABIDIOL] yielded a Ki of 372 nM.
